Experiments:
[1] = target: human estrogen receptor α (Homo sapiens, UniProt P03372); test: Estrogen Receptor α Flash Plate Assay (binding of radiolabeled estrogen); conditions: read-out: Estrogen Receptor α in μM (No.), 0.5 nM radiolabeled estrogen, number in brackets = No. of determinations, NA = no detected activity at test concentration
MCF-7 cells = test: MCF-7 Cell Proliferation Assay (14C-thymidine, agonist and antagonist mode); type: cell-based; conditions: read-out: Antagonist (No.), antagonist mode with 10 nM 17β-estradiol, number in brackets = number of tests, NA = no detected activity at test concentration
Ishikawa cells = test: Alkaline Phosphatase Assay in Human Endometrial Ishikawa Cells (agonist and antagonist mode); conditions: read-out: Antagonist (No.), antagonist mode with 10 nM 17β-estradiol, number in brackets = number of tests, NA = no detected activity at test concentration

The chains behind the UniProt entries cited, without tags or fusion partners.
UniProt P03372, whole entry: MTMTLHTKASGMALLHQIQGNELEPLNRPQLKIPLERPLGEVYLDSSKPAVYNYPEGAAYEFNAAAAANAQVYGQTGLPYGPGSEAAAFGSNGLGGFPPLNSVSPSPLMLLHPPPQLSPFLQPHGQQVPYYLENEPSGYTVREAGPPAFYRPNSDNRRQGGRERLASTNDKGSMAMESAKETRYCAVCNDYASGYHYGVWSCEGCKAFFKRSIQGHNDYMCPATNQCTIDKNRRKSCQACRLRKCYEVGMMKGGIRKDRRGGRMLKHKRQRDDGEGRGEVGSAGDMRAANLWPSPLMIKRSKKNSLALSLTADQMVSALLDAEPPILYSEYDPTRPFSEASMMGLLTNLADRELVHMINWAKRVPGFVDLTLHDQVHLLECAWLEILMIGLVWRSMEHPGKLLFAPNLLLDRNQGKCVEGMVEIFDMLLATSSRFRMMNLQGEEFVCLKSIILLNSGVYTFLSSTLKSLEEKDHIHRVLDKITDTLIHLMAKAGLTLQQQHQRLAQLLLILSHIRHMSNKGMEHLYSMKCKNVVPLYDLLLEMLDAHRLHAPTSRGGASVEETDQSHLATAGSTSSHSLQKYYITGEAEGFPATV

Compound | IC50 [1] | IC50 (MCF-7 cells) | IC50 (Ishikawa cells)
Oc1ccc2c(c1)OC(c1ccc(OCCN3CCCCC3)cc1)C1=C2CCCOc2cc(O)ccc21 (single isomer, unassigned) [125] | 0.079 µM |  | 
COc1ccc2c(c1)OC(c1ccc(OCCN3CCCCC3)cc1)C1=C2CCOc2cc(O)ccc21 (single isomer, unassigned) [Compound 302, 8-Methoxy-5R*-(+)-[4-(2-piperidin-1-yl-ethoxy)-phenyl]-11,12-dihydro-5H-6,13-dioxa-benzo[3,4]cyclohepta[1,2-a]naphthalen-2-ol] | 0.125 µM | > 1000 nM | 739 nM

These reach a lower IC50 [1]. Values come first.

IC50 [1] | IC50 (MCF-7 cells) | IC50 (Ishikawa cells) | Compound
0.0042 µM |  |  | Oc1ccc2c(c1)OC(c1ccc(OCCN3CCCCC3)cc1)C1=C2CCCOc2cc(O)ccc21 (single isomer, unassigned) [126]
0.013 µM |  |  | CN(C)CCOc1ccc(C2Oc3cc(O)ccc3C3=C2c2ccc(O)cc2OCC3)cc1 (single isomer, unassigned) [163]
0.0028 µM |  |  | CN(C)CCOc1ccc(C2Oc3cc(O)ccc3C3=C2c2ccc(O)cc2OCC3)cc1 (single isomer, unassigned) [164]

From US7105679B2, “Heteroatom containing tetracyclic derivatives as selective estrogen receptor modulators” (priority 2001, dated 2006)
